Results: patent US8815213B2, “RGD-(bacterio)chlorophyll conjugates for photodynamic therapy and Imaging of Necrotic tumors” (Yeda Research and Development Co. Ltd., priority 2008, dated 2014)

Tests used:
[1] = tested on: MDA-MB-231-RFP non-necrotic tumors (~0.5 cm^3); assay: In-vivo whole body NIR fluorescence imaging of drug up-take in primary non-necrotic MDA-MB-231-RFP xenograft tumors; conditions: post injection
[2] = tested on: orthotopic human breast MDA-MB-231-RFP primary tumor, necrotic (~1 cm^3); assay: In-vivo whole body NIR fluorescence imaging of drug up-take in primary necrotic MDA-MB-231-RFP xenograft tumors; conditions: 15 mg/kg i.v.; days 1-7 post injection

Palladium 3^1-oxo-15-methoxycarbonyl-methyl-Rhodobacteriochlorin 13^1-(2-sulfoethyl)amide-17^3-c(RGDfK)amide potassium salt [compound 24]
complete drug clearance by that time [1]: ≤ 2 days
clearance from the liver in the following days [2]: no complete clearance
